The results in this text go back to patent publication US20110212091.

This series deals with FGFR4 R388, V5-His tagged (FGFR4R388-V5-His).

For HA-tagged MT1-MMP, the “FGFR4 R388 phosphorylation” value is “markedly enhanced”.
